Results reported in article PMC5954004, “19th European Symposium on Radiopharmacy and Radiopharmaceuticals (ESRR’18)” (EJNMMI Radiopharmacy and Chemistry, 2018).
Like-named read-outs stand apart in the source and are kept apart here.

What was measured:
P-gp = conditions: for VT of the whole brain: Logan analysis
[1] = HPLC at 2 and 4 hours after labelling
TrR1 (breast cancer) = conditions: 72 hours treatment, clonogenic assay, trastuzumab-resistant cell line
SK-OV3 (ovarian cancer) = conditions: 72 hours treatment, clonogenic assay, trastuzumab-resistant cell line
[2] = for at least 2 weeks

## 5-(1-(2-[18F]fluoroethoxy))-[3-(6,7-dimethoxy-3,4-dihydro-1H-isoquinolin-2-yl)-propyl]-5,6,7,8-tetrahydronaphthalen [[^18F]MC225]
P-gp; anesthesia pretreated vs control
  decrease of VT of the whole brain: 29%
P-gp; animals pretreated with anesthesia (isoflurane 90 minutes, one week earlier)
  VT of the whole brain: 7.89±1.25
P-gp; control animals
  VT of the whole brain: 11.04±1.25

## MA-Cys-Tyr-Arg-Leu-Arg-BPA-Nle-Pro-Asn-Ile-OH [^99mTc labelled NPY1 short analogue]
[1]
  stability in reaction milieu and human plasma: stable

## T-DM1
TrR1 (breast cancer)
  T-DM1 concentration with significantly higher cytotoxicity: 10 µg/mL
SK-OV3 (ovarian cancer)
  T-DM1 concentration with significantly higher cytotoxicity: 0.01 µg/mL

## ^89Zr-oxalate
[2]
  radiochemical purity remaining: ≥ 95%
